# Measurements from patent publication US20230398099A1, “METHODS OF TREATING CONDITIONS RELATED TO THE S1P1 RECEPTOR” (Arena Pharmaceuticals, Inc., priority 2020, published 2023).
# Amino acid sequences for entries named in this document (tags omitted).
# UniProt P21453, whole entry: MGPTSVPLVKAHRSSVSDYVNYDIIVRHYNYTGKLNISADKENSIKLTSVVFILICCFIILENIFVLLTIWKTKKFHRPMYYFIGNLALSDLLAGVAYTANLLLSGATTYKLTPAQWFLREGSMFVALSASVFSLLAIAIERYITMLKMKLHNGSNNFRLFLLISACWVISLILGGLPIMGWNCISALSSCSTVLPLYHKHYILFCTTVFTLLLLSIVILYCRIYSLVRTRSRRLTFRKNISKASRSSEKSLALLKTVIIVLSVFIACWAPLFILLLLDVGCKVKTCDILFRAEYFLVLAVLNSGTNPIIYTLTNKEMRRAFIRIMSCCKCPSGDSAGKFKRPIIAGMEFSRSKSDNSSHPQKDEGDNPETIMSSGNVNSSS
# Experiments:
# hS1PR1 = hS1PR1 (Homo sapiens, UniProt P21453); experiment: b-arrestin recruitment assay; type: cell-based; settings: % relative to S1P
# hS1P1 = hS1P1 (Homo sapiens, UniProt P21453); experiment: S1P1 GTPgS binding assay; type: biochemical; settings: % relative to S1P
smiles,measurement,setting,value
CCCCCCCCc1ccc(CC[C@](N)(CO)COP(=O)(O)O)cc1 [Fingolimod(P)],Emax,hS1PR1,123%
same,Emax,hS1P1,90%
